Results as given in patent publication US20080292736A1, “Bioavailability enhancing activity of carum carvi extracts and fractions thereof” (COUNCIL OF SCIENTIFIC AND INDUSTRIAL RESEARCH, priority 2001, published 2008).

Assay: Enhancement of bioavailability of drugs given to rats with bioenhancers (plasma drug level by HPLC)

Iron
nil: % Enhancement in bioavailability, BE from Zingiber officinale (drug with Zingiber officinale 50% alcoholic extract of fresh ginger 35 mg/kg, drug dose as in row) | % Enhancement in bioavailability, Piperine as BE (drug with piperine 8 mg/kg, drug dose as in row) | % Enhancement in bioavailability, Carum carvi (Cc) Frac 1. (nutraceutical with Carum carvi Fraction No. 1 15 mg/kg) | % Enhancement in bioavailability, Carum carvi + Zingiber officinale, Frac 1. (Cc) (nutraceutical with Carum carvi Fraction No. 1 and Zingiber officinale) | % Enhancement in bioavailability, Carum carvi + piperine, Frac 1. (Cc) (nutraceutical with Carum carvi Fraction No. 1 and piperine) | % Enhancement in bioavailability, Carum carvi (Cc) Extr. (nutraceutical with Carum carvi extract 30 mg/kg) | % Enhancement in bioavailability, Carum carvi + Zingiber officinale, Extr. (Cc) (nutraceutical with Carum carvi extract and Zingiber officinale) | % Enhancement in bioavailability, Carum carvi + piperine, Extr. (Cc) (nutraceutical with Carum carvi extract and piperine)
